The entries are a selection whose mix differs from that of the whole data set. The source made the active and inactive calls.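 How the source made its calls: active means inhibition of the ligand-induced calcium signal above about 50% at the single tested concentration (limit read from the data); inactive means the rest.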

A short description of the experiment: blockers of CRF-evoked CRF-R2/CRF-BP calcium response – cell-based, HEK293, calcium dye fluorescence, uHTS, primary screen (AID 588475). Conditions: CRF-induced calcium fluorescence, at 11.8 µM, stronger effect = higher value.
In general, inhibition refers to the drop in the measured response relative to a control, in per cent. With `CSc1ccc(C(=O)NCC2(N3CCOCC3)CCCCC2)cc1`, the inhibition is inactive: -7.58%. As for `O=C(NCC1(N2CCCCC2)CCCCC1)c1cccc([N+](=O)[O-])c1`, the inhibition was inactive: 5.82%. With `CCN1CCC(Nc2ccc(Cl)cc2)CC1` the figure was inactive: 3.5%. Regarding `N#CC1(Nc2ccccc2)CCN(CCc2ccccc2)CC1`, the inhibition is inactive: -57%. As for `O=C(NCC1(N2CCCCC2)CCCCC1)c1ccc(OC(F)F)cc1`, the inhibition was inactive: -5.17%. For `COc1ccc(NC2CCN(C(=O)OC(C)(C)C)CC2)cc1`, the inhibition was inactive: 6.9%.

Turning to `CC(C)c1ccc(C(=O)NCC2(N3CCOCC3)CCCCC2)cc1`, the inhibition is inactive: -1.94%. For `CN1CCN(CCOC(=O)C(O)(c2ccccc2)c2ccccc2)CC1`, the inhibition was inactive: 1.15%. In the case of `O=C(NCC1(N2CCOCC2)CCCCC1)c1cc(=O)[nH]c2ccccc12` it was inactive: 16.9%; in that of `COc1cc(C(=O)NCC2(N3CCCCC3)CCCCC2)ccc1OC(F)F`, inactive: -2.55%; in that of `O=C(NCC1(N2CCCCC2)CCCCC1)c1cccc(C(F)(F)F)c1`, inactive: -18.3%. `COc1cc(OC)c(C(=O)NCC2(N(C)C)CCCCC2)cc1OC`: the inhibition is inactive: 0.07%. In the case of `O=C(NCC1(N2CCOCC2)CCCCC1)c1cc(F)c(F)cc1Cl` it was inactive: 4.59%; in that of `COc1ccc(CN(CCCl)CCCl)cc1Cl`, inactive: 37.8%; in that of `CN(C)c1cccc(C(=O)NCC2(N3CCCCC3)CCCCC2)c1`, inactive: 2.06%. For `CC(C)c1ccc(NC2CCN(C(=O)OC(C)(C)C)CC2)cc1`, the inhibition was inactive: -9.72%. With `Cc1ccc(C(=O)NCC2(N(C)C)CCCCC2)o1` the figure was inactive: 2.72%. Consider `CCCOc1ccc(C(=O)NCC2(N(C)C)CCCCC2)cc1OC`, for which the inhibition was inactive: 17%.

For the molecule `O=C(NCC1(N2CCCCC2)CCCCC1)c1cncc(Br)c1`, the inhibition is inactive: -1.63%. In the case of `CN1CCC(Nc2cccc(F)c2)CC1` it was inactive: -15%; in that of `CSc1ccccc1C(=O)NCC1(N2CCCCC2)CCCCC1`, inactive: 9.99%.

As to `Cc1cccc(NC2(C#N)CCN(Cc3ccccc3)CC2)c1`, the inhibition is inactive: -0.07%. In the case of `O=C(NCC1(N2CCCCC2)CCCCC1)c1ccc(=O)[nH]c1` it was inactive: 11.2%; in that of `O=C(NCC1(N2CCCCC2)CCCCC1)c1cccs1`, inactive: -2.99%. Turning to `COc1ccc(C(=O)NCC2(N3CCCCC3)CCCCC2)cc1`, the inhibition is inactive: 5.46%. In the case of `COc1ccc(C(=O)NCC2(N3CCCCC3)CCCCC2)c(OC)c1OC` it was inactive: -14.6%. As to `CC(C)(C)OC(=O)N1CCC(N(C(=O)c2ccccc2)c2ccc(F)cc2)CC1`, the inhibition was inactive: -5.67%.

`CCOC(=O)N1CCC(Nc2ccc(OC)cc2)CC1`: the inhibition was inactive: -1.47%. In the case of `O=C(OC1CN2CCC1CC2)C1c2ccccc2Oc2ccccc21` (stereo unspecified), the inhibition is inactive: -24.4%. With `N#CC1(Nc2ccccc2)CCN(Cc2ccccc2)CC1` the figure was inactive: -3.06%; with `O=C(NCC1(N2CCCCC2)CCCCC1)c1ccc(Cl)s1`, inactive: 1.69%.

Turning to `COc1ccc(Cl)cc1C(=O)NCC1(N2CCOCC2)CCCCC1`, the inhibition was inactive: -17.7%. With `O=C(NCC1(N2CCOCC2)CCCCC1)c1cc2ccccc2o1` the figure was inactive: -7.66%; with `O=C(NCC1(N2CCCCC2)CCCCC1)c1ccc(Cl)nc1`, inactive: 18.7%. With `Cc1cc(C)cc(N(C(=O)c2ccccc2)C2CCN(C(=O)OC(C)(C)C)CC2)c1` the figure was inactive: 2.11%. With `O=C(NCC1(N2CCCCC2)CCCCC1)c1ccc(F)cc1` the figure was inactive: -2.45%; with `CCCCOc1ccc(C(=O)NCC2(N3CCOCC3)CCCCC2)cc1`, inactive: -3.34%. On to `O=P1(N(CCCl)CCCl)SCCCS1`, for which the inhibition is inactive: 19%.

With `CCOC(=O)N1CCC(Nc2ccc(F)cc2)CC1`, the inhibition was inactive: -2.92%. With `COc1ccc(NC2CCN(CCc3ccccc3)CC2)c(OC)c1` the figure was inactive: 16.5%. In the case of `CCOc1ccc(C)cc1CN(CCCl)CCCl`, the inhibition was inactive: 20.6%.

As for `O=C1CCN(Cc2ccccc2)CC1`, the inhibition was inactive: -9.28%.

On to `COc1cc(C(=O)NCC2(N(C)C)CCCCC2)ccc1OC(F)F`, for which the inhibition is inactive: 6.27%.

With `CCOC(=O)N1CCC(Nc2cccc(C)c2)CC1`, the inhibition is inactive: 2.59%.

Consider `Cc1ccc(NC2(C#N)CCN(Cc3ccccc3)CC2)cc1`, for which the inhibition is inactive: -9.12%. On to `Cc1ccc(C(=O)NCC2(N3CCCCC3)CCCCC2)o1`, for which the inhibition was inactive: 11.5%. With `Fc1ccccc1NC1CCN(Cc2ccccc2)CC1` the figure was inactive: 19.3%. For `COc1cc(OC)cc(C(=O)NCC2(N3CCCCC3)CCCCC2)c1`, the inhibition was inactive: -0.86%. As to `CC(=O)N(c1ccccc1)C1CCNCC1`, the inhibition was inactive: 8.83%.

On to `O=C(NCC1(N2CCCCC2)CCCCC1)c1ccco1`, for which the inhibition is inactive: 2.78%. In the case of `Cn1c(=O)[nH]cc(N(CCCl)CCCl)c1=O` it was inactive: 27.3%; in that of `CN(C)c1ccc(C(=O)NCC2(N3CCCCC3)CCCCC2)cc1`, inactive: -7.21%.

As for `Cc1ccccc1NC1(C#N)CCN(Cc2ccccc2)CC1`, the inhibition was inactive: 12.6%. In the case of `CCN1CCC(Nc2cccc(F)c2)CC1`, the inhibition was inactive: 2.96%.

Take `CCCOc1ccc(C(=O)NCC2(N(C)C)CCCCC2)cc1`: the inhibition is inactive: 3.09%.

Take `CC(C)(C)OC(=O)N1CCC(Nc2ccccc2)CC1`: the inhibition was inactive: -1.5%.

In the case of `O=C(O)C1(Nc2ccccc2)CCN(Cc2ccccc2)CC1`, the inhibition was inactive: 4.46%. With `CCOc1ncccc1C(=O)NCC1(N2CCOCC2)CCCCC1` the figure was inactive: -3.55%. With `CN1CCC(Nc2ccc(F)c(Cl)c2)CC1` the figure was inactive: 16.2%. With `CN1CCC(Nc2ccc(Cl)cc2)CC1` the figure was inactive: -10.3%; with `CCC(CO)(C(=O)OC1CN2CCC1CC2)c1ccccc1` (stereo unspecified), inactive: -4.15%. For `COc1cccc(C(=O)N(c2cc(C)cc(C)c2)C2CCN(C(=O)OC(C)(C)C)CC2)c1`, the inhibition was inactive: 22.4%. With `COc1cc(OC)cc(C(=O)NCC2(N3CCOCC3)CCCCC2)c1` the figure was inactive: 4.97%; with `COc1ccc(C(=O)NCC2(N3CCOCC3)CCCCC2)cc1OC`, inactive: 3.48%. In the case of `O=C(NCC1(N2CCOCC2)CCCCC1)c1cc(Br)ccc1Cl` it was inactive: -0.31%; in that of `COc1cc(C(=O)NCC2(N3CCOCC3)CCCCC2)cc(OC)c1C`, inactive: 0.46%. With `O=C(OC1CN2CCC1CC2)C1c2ccccc2C=Cc2ccccc21` (stereo unspecified) the figure was inactive: -16%; with `CCc1cc(C(=O)NCC2(N3CCCCC3)CCCCC2)sc1C`, inactive: 12.9%. Turning to `N/C(=N\O)c1c(N)no[n+]1[O-]`, the inhibition is inactive: -7.55%. In the case of `CCOC(=O)N1CCC(Nc2ccc(C)cc2)CC1` it was inactive: 16.1%; in that of `CC(C)(C)OC(=O)N1CCC(N(C(=O)c2ccccc2)c2ccc(Cl)cc2)CC1`, inactive: 6.35%; in that of `N#Cc1ccc(C(=O)NCC2(N3CCCCC3)CCCCC2)cc1`, inactive: -4.84%. In the case of `c1ccc(CN2CCC(Nc3ccccc3)CC2)cc1`, the inhibition was inactive: -10.3%.

Turning to `CCCN1CCC(Nc2cc(OC)cc(OC)c2)CC1`, the inhibition was inactive: 5.48%. Take `Cc1cc(N(CCCl)CCCl)ccc1C=O`: the inhibition was active: 62.1%. With `CN(C)C1(CNC(=O)c2cccc(C#N)c2)CCCCC1` the figure was inactive: 4.92%.

The values above are taken from PubChem BioAssay AID588475 (Sanford-Burnham Center for Chemical Genomics, 2011).
